Literature values, collected in article PMC10703426, “New characterization of dihydroergotamine receptor pharmacology in the context of migraine: utilization of a β-arrestin recruitment assay” (Frontiers in Neurology, 2023).
Structures can show the parent of a compound that is named as a salt.

System: 5-HT2A
Settings: IV DHE (53 ng/mL); cited from earlier work

For `CN1C[C@H](C(=O)N[C@]2(C)O[C@@]3(O)[C@@H]4CCCN4C(=O)[C@H](Cc4ccccc4)N3C2=O)C[C@@H]2c3cccc4[nH]cc(c34)C[C@H]21` [DHE, Dihydroergotamine mesylate], the “receptor radioligand binding (active binding)” value is given as “X (An X denotes active binding)”.
